The test system of assay [1] is interleukin 10 (IL10) gene. The assay is described as follows: Quantitative real time PCR of hippocampal gene expression after IP injection. In kind it is in vivo, Sprague-Dawley rats. The note with it: within 1 hour after single injection of 1.0 mg/kg.
In assay [2] the test system is interleukin 6 (IL6) gene. Described as above. The note with it: within 1 hour after single injection of 1.0 mg/kg. In kind it is in vivo, Sprague-Dawley rats.
Assay [3] concerns male Wistar rats. The assay is described as follows: Traumatic brain injury (fluid percussion) in rats, neurological severity score. In kind it is in vivo, rat. How it is done:
(§1) Three groups of male Wistar rats/group were used in this study. The animals were given 0 (vehicle control; saline), 0 (sham controls) or 0.5 mg/kg/hr MA via a 24 hr continuous IV infusion starting 3 hr after […] on Day 0. The test article was administered via an Alzet mini-osmotic pump at a rate of 0.0073 mL/hour. The dose concentration of MA loaded in the Alzet pump varied between animals (45.8-65.0 mg/mL), and was based on individual animal body weight on Day 0 and the dose concentration that would yield 0.5 mg/kg/hr MA at an infusion rate of 0.0073 mL/hr. Dosing of the animals was staggered over a 4-month period.
Prior to test article administration, all rats were subjected to a surgical procedure to produce a fluid percussion injury. Adult Sprague-Dawley rats (male, 350-500 g) are anesthetized with isoflurane anesthesia (1% isofluorane in 1 L/min O2) via face mask to effect for a small craniectomy (4.80 mm) and placement of a rigid Luer-loc needle hub (3 mm inside diameter). […] The righting reflex time after injury was recorded. […] Animals were monitored 3-4 times a day for the first 48 hr following surgery and daily thereafter for 14 days.
Behavioral testing was conducted at day 1. […] Neurological motor function was scored in all animals as follows:
Neurological severity score (NSS) was determined based on the scale below. […]

For assay [4], the system named is male Wistar rats. The assay is described as follows: Traumatic brain injury (fluid percussion) in rats, foot fault test. In kind it is in vivo, rat. The note with it: after TBI; 0.5 mg/kg/hr 24 hr IV infusion starting 3 hr after injury. How it is done: as §1
Prior to test article administration, all rats were subjected to a surgical procedure to produce a fluid percussion injury. […] The righting reflex time after injury was recorded. […] Animals were monitored 3-4 times a day for the first 48 hr following surgery and daily thereafter for 14 days.
Foot fault testing was performed to measure placement dysfunction of forelimbs. […] This was recorded as a foot fault. The total number of steps (movement of each forelimb) that the rat used to cross the grid were counted, and the total number of foot faults for each forelimb were recorded.

Molecules are shown by their SMILES.

Regarding `CN[C@@H](C)Cc1ccccc1` [methamphetamine], the “IL10 expression, fold change” value in assay [1] is “increased more than four fold”. Further, the “IL6 expression, fold change” value in assay [2] was “greater than two fold reduction”. Further, the “decrease in neurological severity score at day 7” value in assay [3] (0.5 mg/kg/hr 24 hr IV infusion plus bolus, starting 3 hr after TBI) was found to be 52%. For the same compound, in assay [3] (7, 14, 21 and 30 days after TBI, 0.5 mg/kg/hr 24 hr IV infusion starting 3 hr after injury), the “neurological severity scores vs saline” value is “Significant differences in neurological severity scores”. Moreover, the “percent of forelimb misses (foot fault test) vs saline” value in assay [4] is recorded as “Significant differences in the percent of forelimb misses”.

The values above are taken from patent publication US20150290148A1 (priority 2006, published 2015).
